Results from US10464925B2.

Experiments:
[1] = molecular target: fusion of FKBP12 to nanoluciferase (Homo sapiens, UniProt P62942+Q96SW2); experiment: FKBP Dual Luciferase Assay, wild-type 293FT, FKBP12; conditions: read-out: Max Degradation (dual luciferase, %) FKBP
FKBP12 (36V) = FKBP12 (36V) (Homo sapiens, UniProt P62942, F37V); experiment: FKBP12 (36V) Ligand-Displacement AlphaScreen Assay
FKBP12 [2] = molecular target: T1, FKBP12 (Homo sapiens, UniProt P62942); conditions: for reduction of FKBP12: MV4-11, 0.01 μM, 18 h
FKBP12 (WT) = FKBP12 (WT) (Homo sapiens, UniProt P62942); experiment: FKBP12 (WT) Ligand-Displacement AlphaScreen Assay
[3] = molecular target: fusion of mutant FKBP12 to nanoluciferase (Homo sapiens, UniProt P62942+Q96SW2, F37V); experiment: FKBP Dual Luciferase Assay, wild-type 293FT, mutant FKBP12 (36V); conditions: read-out: Max Degradation (dual luciferase, %) FKBP 36V
CRBN = molecular target: T2, CRBN (Homo sapiens, UniProt Q96SW2); experiment: Intracellular CRBN Engagement Assay (dFKBP7 rescue); assay type: cell-based
T2 construct: endogenous in cells

CRBN-DDB1 = CRBN-DDB1 (Homo sapiens, UniProt Q96SW2); experiment: CRBN-DDB1 Ligand-Displacement AlphaScreen Assay (thalidomide competition); conditions: biotin-thalidomide competition;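 note: streptavidin donor and nickel chelate acceptor bead proximity signal after 30 min incubation, normalized with no-protein background as 0% and DMSO wells as 100% activity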
BRD4 = BRD4 (Homo sapiens, UniProt O60885); experiment: BRD4 Cell Western (BRD4 levels in 293T cells, LiCOR); conditions: read-out: BRD4 DC50 (nM) Cell Western, 4 hours
MOLT4 = experiment: Cell viability, ATPlite 48 hours, MOLT4; conditions: Homo sapiens, MOLT-4, read-out: IC50 (nM) MOLT4
[4] = molecular target: BRD4 adjoined to nanoluciferase (Nluc) (Homo sapiens, UniProt O60885+Q96SW2); experiment: BRD4 Dual Luciferase Assay;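 note: transduced reporter cells exposed to compound for 4 h, then Nluc and Fluc luminescence read, each normalized to DMSO controls and expressed as Nluc/Fluc ratio per well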
FKBP12 [5] = molecular target: T1, FKBP12; conditions: 18 h
[6] = competition with 80 nM dFKBP7, 3 hours, read-out: FKBP7 rescue (EC50)

Structure (SMILES): CCC(C)(C)C(=O)C(=O)N1CCCC[C@H]1C(=O)O[C@H](CCc1ccc(OC)c(OC)c1)c1cccc(NC(=O)CCC(=O)NCCCOCCOCCOCCCNC(=O)COc2cccc3c2C(=O)N(C2CCC(=O)NC2=O)C3=O)c1 (stereo partly drawn)
Dmax [1]: 53%
IC50 (FKBP12 (36V)): 174 nM
reduction of FKBP12 (FKBP12 [2]): 50%
IC50 (FKBP12 (WT)): 218 nM
Dmax [3]: 43%

Structure (SMILES): Cc1sc2c(c1C)C(c1ccc(Cl)cc1)=N[C@@H](CC(=O)NCCNC(=O)COc1cccc3c1C(=O)N(C1CCC(=O)NC1=O)C3=O)c1nnc(C)n1-2 (stereo partly drawn) [dBET3]
EC50 (CRBN; [6]): 47500 nM

Structure (SMILES): CC[C@@H]1C(=O)N(C)c2cnc(Nc3ccc(C(=O)NCCCCCCNC(=O)COc4cccc5c4C(=O)N(C4CCC(=O)NC4=O)C5=O)cc3OC)nc2N1C1CCCC1 (stereo partly drawn) [dBET7]
EC50 (CRBN): 217000 nM
IC50 (CRBN-DDB1): 417 nM
DC50 (BRD4): 7.1 nM

Structure (SMILES): Cc1sc2c(c1C)C(c1ccc(Cl)cc1)=N[C@@H](CC(=O)NCCCCCCNC(=O)c1ccc3c(c1)C(=O)N(C1CCC(=O)NC1=O)C3=O)c1nnc(C)n1-2 (stereo partly drawn) [dBET15]
EC50 (CRBN): 48200 nM

Structure (SMILES): COC(=O)C[C@@H]1N=C(c2ccc(Cl)cc2)c2c(sc(C(=O)NCCCCNC(=O)COc3cccc4c3C(=O)N(C3CCC(=O)NC3=O)C4=O)c2C)-n2c(C)nnc21 (stereo partly drawn) [dBET22]
Dmax ([4]; read-out: BRD4 max degradation(%) Dual Luciferase): 73%
Emax ([4]; read-out: BRD4− Emax (percent remaining)): 26.3%
Dmax ([4]; read-out: max degradation (dual luc)): 72.7%

Continued, in another order:

EC50 (CRBN; [6]): 27000 nM
Structure (SMILES): Cc1sc2c(c1C)C(c1ccc(Cl)cc1)=N[C@@H](CC(=O)NCCCCCCNC(=O)COc1cccc3c1C(=O)N(C1CCC(=O)NC1=O)C3=O)c1nnc(C)n1-2 (stereo partly drawn) [dBET5]

IC50 (MOLT4): 1500 nM
Structure (SMILES): Cc1sc2c(c1C)C(c1ccc(Cl)cc1)=N[C@@H](CC(=O)NCCCOCCOCCOCCCNC(=O)COc1cccc3c1C(=O)N(C1CCC(=O)NC1=O)C3=O)c1nnc(C)n1-2 (stereo partly drawn) [dBET9]

Dmax [1]: 44%
improvement in potency as compared to conjugated PROTAC ligands (FKBP12 [2]): 1000 fold
reduction of FKBP12 (FKBP12 [2]): 50%
Dmax [3]: 35%
degradation of FKBP12 (FKBP12 [5]; 293FT-CRBN−/− cells): unaffected
Structure (SMILES): CCC(C)(C)C(=O)C(=O)N1CCCC[C@H]1C(=O)O[C@H](CCc1ccc(OC)c(OC)c1)c1cccc(NC(=O)CCC(=O)NCCCCNC(=O)COc2cccc3c2C(=O)N(C2CCC(=O)NC2=O)C3=O)c1 (stereo partly drawn) [dFKBP-1]
degradation of FKBP12 (FKBP12 [5]; 293FT-WT cells): potent, dose-dependent degradation of FKBP12

Read-outs that look alike come from different tables or passages of the source. Each block holds one molecule with its values, some of them ahead of it.
